Data published in US7732424B2, “Purine derivatives and methods of use thereof” (Inotek Pharmaceuticals Corporation, priority 2005, dated 2010).

Sequences of proteins named here, by UniProt entry; tags and fusion partners are left off.
UniProt P30542, whole entry: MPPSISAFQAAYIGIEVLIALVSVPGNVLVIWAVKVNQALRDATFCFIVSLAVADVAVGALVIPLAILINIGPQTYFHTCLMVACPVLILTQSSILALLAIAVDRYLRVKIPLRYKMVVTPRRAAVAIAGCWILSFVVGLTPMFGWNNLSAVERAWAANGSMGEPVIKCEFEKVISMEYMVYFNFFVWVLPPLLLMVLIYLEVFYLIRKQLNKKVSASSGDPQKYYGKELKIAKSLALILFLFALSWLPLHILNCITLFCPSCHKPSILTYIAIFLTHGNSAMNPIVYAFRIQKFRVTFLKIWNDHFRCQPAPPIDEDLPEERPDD

Molecular target: human recombinant A1 adenosine receptor (Homo sapiens, UniProt P30542)
Experiment: Adenosine A1 receptor binding, displacement of [^3H]CCPA in transfected CHO cells
Settings: A1 versus A2A and A3, from Table 2
Experimental: Membranes for radioligand binding experiments were prepared from fresh or frozen cells as described in Klotz et al., Naunyn-Schmiedeberg's Arch. Pharmacol., 357:1-9 (1998). The cell suspension was then homogenized in ice-cold hypotonic buffer (5 mM Tris/HCl, 2 mM EDTA, pH 7.4) and the resultant homogenate was spun for 10 minutes (4° C.) at 1,000 g. The membranes were then sedimented from the supernatant for 30 minutes at 100,000 g and resuspended in 50 mM Tris/HCl buffer pH 7.4 (for A3 adenosine receptors: 50 mM Tris/HCl, 10 mM MgCl2, 1 mM EDTA, pH 8.25), frozen in liquid nitrogen at a protein concentration of 1-3 mg/mL and stored at −80° C.
Nonspecific binding was determined in the presence of 100 μM R-PIA and 1 mM theophylline, respectively. For details see Klotz et al., Naunyn-Schmiedeberg's Arch. Pharmacol., 357:1-9, 1998. All binding data were calculated by non-linear curve fitting using the program SCTFIT (De Lean et al., Mol. Pharm. 1982, 21:5-16).

For `OC[C@H]1O[C@@H](n2cnc3c(NC4(CO)CCCC4)ncnc32)[C@H](O)[C@@H]1O` [I′-1], the “Selectivity of binding for adenosine A1 receptor” value was “selectively bind the adenosine A1 receptor”.
